Source: patent publication US20260382650A1, “PHARMACEUTICAL COMPOSITION FOR TREATING PULMONARY INFLAMMATORY DISEASE, AND PREPARATION AND APPLICATION THEREOF” (published 2026)

Experiments:
[1] = system: LPS-induced pathological lung damage in mice; test: LPS-induced acute lung injury, lung H&E histopathology; details: 20 mg/kg each, intragastric; combination 20 + 20 mg/kg; LPS 10 mg/kg; day 14
SLC7A11 = test: LPS-induced acute lung injury, SLC7A11 in lung tissue (Western blot/qRT-PCR); details: 20 mg/kg, intragastric; LPS 10 mg/kg
IL-1β [2] = test: LPS-induced acute lung injury, IL-1β in BALF by ELISA; details: 20 mg/kg each, intragastric; combination 20 + 20 mg/kg; LPS 10 mg/kg
[3] = system: inflammatory cells in peripheral blood of LPS-induced mice; test: LPS-induced acute lung injury, complete blood count; details: 20 mg/kg each, intragastric; combination 20 + 20 mg/kg; LPS 10 mg/kg
COX-2 = test: LPS-induced acute lung injury, qRT-PCR of lung tissue: COX-2 mRNA; details: 20 mg/kg each, intragastric; combination 20 + 20 mg/kg; LPS 10 mg/kg
caspase-1 = test: LPS-induced acute lung injury, qRT-PCR of lung tissue: caspase-1 mRNA; details: 20 mg/kg each, intragastric; combination 20 + 20 mg/kg; LPS 10 mg/kg
NLRP3 = test: LPS-induced acute lung injury, qRT-PCR of lung tissue: NLRP3 mRNA; details: 20 mg/kg each, intragastric; combination 20 + 20 mg/kg; LPS 10 mg/kg
IL-1β [4] = test: LPS-induced acute lung injury, qRT-PCR of lung tissue: IL-1β mRNA; details: 20 mg/kg each, intragastric; combination 20 + 20 mg/kg; LPS 10 mg/kg
GPX4 = test: LPS-induced acute lung injury, GPX4 in lung tissue (Western blot/qRT-PCR); details: 20 mg/kg, intragastric; LPS 10 mg/kg
RAW 264.7 cells = test: MTT cytotoxicity in RAW 264.7 cells; details: compounds, 3.13-100 μM
[5] = system: LPS-induced RAW264.7 mouse macrophages; test: NO production inhibition in LPS-induced RAW264.7 macrophages (Griess); details: LPS 1 μg/mL; for maximum inhibition rate of NO production: 100 μM, 24 hrs; for inhibition of NO production (in words): compounds, 3.13-100 μM
Quinone reductase (QR) = test: Quinone reductase (QR)-inducing activity in Hepa 1c1c7 cells; details: for QR induction factor: 100 μM, 24 hrs
[6] = system: human bronchial epithelial Beas-2B cells; test: Transcriptomic analysis in LPS-induced Beas-2B cells; details: for downregulated genes / upregulated genes: compared with the inflammation group, |log FC|>1; for potential anti-inflammatory functional genes (targets): intersection of inflammation-group and treatment-group genes regulated in opposite directions (Venny 2.1.0)
[7] = system: Human liver immortalized THLE-2 cells; test: Hepatotoxicity, MTT viability of THLE-2 cells; details: 24 hrs
Human liver THLE-2 cells = test: ROS production in THLE-2 cells (DCHF-DA, flow cytometry); details: 24 hrs

Compound	inflammatory symptoms in lung tissue (H&E) [1]	SLC7A11 protein level (SLC7A11)	level of IL-1β in BALF (IL-1β [2])	neutrophil count in blood [3]	white blood cell count in blood [3]	COX-2 mRNA level in lung tissue (COX-2)	caspase-1 mRNA level in lung tissue (caspase-1)	NLRP3 mRNA level in lung tissue (NLRP3)	IL-1B mRNA level in lung tissue (IL-1β [4])	GPX4 protein level (GPX4)	maximum inhibition rate of NO production [5]	inhibition of NO production (in words) [5]	QR induction (in words) (Quinone reductase (QR))	QR induction factor (Quinone reductase (QR))	hepatotoxicity / cell viability (in words) [7]	ROS levels (in words) (Human liver THLE-2 cells)	other results
CC1O[C@@H](OC2[C@H](Oc3c(-c4ccc(O)cc4)oc4cc(O)cc(O)c4c3=O)OC(CO)[C@@H](O)[C@@H]2O)C(O)[C@@H](O)[C@H]1O (some centres unmarked)	significantly alleviated these inflammatory symptoms	significantly promoted the increase in SLC7A11 and GPX4	reduced the level of IL-1B	reduced both counts	reduced both counts	inhibited the increase in the mRNA levels	inhibited the increase in the mRNA levels	inhibited the increase in the mRNA levels	inhibited the increase in the mRNA levels	significantly promoted the increase in SLC7A11 and GPX4							
O=c1c(O[C@@H]2O[C@H](CO)[C@@H](O)[C@H](O)[C@H]2O)c(-c2ccc(O)cc2)oc2cc(O)cc(O)c12	significantly alleviated these inflammatory symptoms	significantly promoted the increase in SLC7A11 and GPX4	reduced the level of IL-1B	reduced both counts	reduced both counts	inhibited the increase in the mRNA levels	inhibited the increase in the mRNA levels	inhibited the increase in the mRNA levels	inhibited the increase in the mRNA levels	significantly promoted the increase in SLC7A11 and GPX4							
CC1O[C@@H](OC2[C@H](Oc3c(-c4ccc(O)cc4)oc4c([C@]56O[C@@]5(c5ccc(O)cc5)Oc5cc(O)cc(O)c5C6=O)c(O)cc(O)c4c3=O)OC(CO)[C@@H](O)[C@@H]2O)C(O)[C@@H](O)[C@H]1O (some centres unmarked)											60.59%	dose-dependently inhibiting NO production	induced QR activity in a dose-dependent manner	2.13			cytotoxicity (RAW 264.7 cells): no cytotoxicity
O=C1C=CC[C@@H]2[C@@H]3CCCN4CCC[C@@H](CN12)[C@@H]34																	downregulated genes [6]: 92 genes; upregulated genes [6]: 243 genes; potential anti-inflammatory functional genes (targets) [6]: 335 potential anti-inflammatory functional genes (targets)
O=c1c(O)c(-c2ccc(O)cc2)oc2cc(O)cc(O)c12	significantly alleviated these inflammatory symptoms	significantly promoted the increase in SLC7A11 and GPX4	reduced the level of IL-1B	reduced both counts	reduced both counts	inhibited the increase in the mRNA levels	inhibited the increase in the mRNA levels	inhibited the increase in the mRNA levels	inhibited the increase in the mRNA levels	significantly promoted the increase in SLC7A11 and GPX4	85.46%	dose-dependently inhibiting NO production	induced QR activity in a dose-dependent manner	3.65	effectively reduced the hepatotoxicity of matrine	effectively reduced the ROS levels induced by matrine	
O=C1CCC[C@@H]2[C@H]3CCCN4CCC[C@@H](CN12)[C@@H]34	significantly alleviated these inflammatory symptoms		reduced the level of IL-1B	reduced both counts	reduced both counts	inhibited the increase in the mRNA levels	inhibited the increase in the mRNA levels	inhibited the increase in the mRNA levels	inhibited the increase in the mRNA levels						toxic to normal liver cells, inhibiting cell viability in a dose-dependent manner	increasing ROS levels in a dose-dependent manner	maximum ROS induction factor (Human liver THLE-2 cells; combinations at ratio 1:1): 2.37 fold
CC1O[C@@H](OC2[C@H](Oc3c(-c4ccc(O)cc4)oc4c([C@@]56O[C@]5(c5ccc(O)cc5)Oc5cc(O)cc(O)c5C6=O)c(O)cc(O)c4c3=O)OC(CO)[C@@H](O)[C@@H]2O)C(O)[C@@H](O)[C@H]1O (some centres unmarked)											59.48%	dose-dependently inhibiting NO production	induced QR activity in a dose-dependent manner	3.65	effectively reduced the hepatotoxicity of matrine	effectively reduced the ROS levels induced by matrine	cytotoxicity (RAW 264.7 cells): no cytotoxicity; downregulated genes [6]: 76 genes; upregulated genes [6]: 303 genes; potential anti-inflammatory functional genes (targets) [6]: 379 potential anti-inflammatory functional genes (targets)
